The source of these data is ChEMBL document CHEMBL5500361, “Probing benzenesulfonamide-thiazolidinone hybrids as multitarget directed ligands for efficient control of type 2 diabetes mellitus through targeting the enzymes: α-glucosidase and carbonic anhydrase II” (Eur J Med Chem, 2024).

In assay [1] the test system is MCF7. Nature of the assay: Antiproliferative activity against human MCF7 cells assessed as inhibition of cell growth under hypoxia condition by MTT colorimetric assay.
Assay [2] concerns MCF7. Nature of the assay: Antiproliferative activity against human MCF7 cells assessed as inhibition of cell growth under normoxia condition by MTT colorimetric assay.

Structures are written as SMILES.

With `CCN1C(=O)/C(=C\c2ccc(Cl)cc2)S/C1=N/c1ccc(S(N)(=O)=O)cc1`, the IC50 with MCF7 [1] is 14.8 µM; in the assay with MCF7 [2] it was 9.8 µM.

On to `CCN1C(=O)/C(=C2\C(=O)Nc3ccccc32)S/C1=N/c1ccc(S(N)(=O)=O)cc1`, for which the concentration for half-maximal inhibition (IC50) with MCF7 [1] is 25.3 µM; in the assay on MCF7 [2], 7.95 µM.
